Where two headings read alike, the source gives them in different places.
What was measured:
[1] = molecular target: B. taurus (heart) complex I (Bos taurus, UniProt P03887+P17694+P42026); format: biochemical; conditions: heart mitochondria
L1 wild-type C. elegans = conditions: for Relative Motility: relative to DMSO controls, single biological replicate
[2] = 50 μM compound, worm motility 3 hours after removal of KCN
[3] = 50 μM, worm motility 3 hours after the removal of KCN (endpoint)
[4] = 50 μM, worm motility 3 hours after removal of KCN

Protein sequences, listed by entry. Tags and fused reporters are not part of them. Residues count along the entry.
UniProt P03887, whole entry: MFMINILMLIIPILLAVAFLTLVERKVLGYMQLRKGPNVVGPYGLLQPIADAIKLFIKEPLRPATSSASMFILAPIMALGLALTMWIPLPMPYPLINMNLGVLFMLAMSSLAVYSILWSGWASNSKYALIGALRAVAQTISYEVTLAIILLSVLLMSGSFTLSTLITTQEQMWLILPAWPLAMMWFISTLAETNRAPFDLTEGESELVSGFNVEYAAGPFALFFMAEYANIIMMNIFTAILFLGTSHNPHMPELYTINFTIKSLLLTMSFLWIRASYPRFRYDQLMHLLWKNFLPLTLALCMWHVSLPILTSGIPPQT
UniProt P17694, 34-463: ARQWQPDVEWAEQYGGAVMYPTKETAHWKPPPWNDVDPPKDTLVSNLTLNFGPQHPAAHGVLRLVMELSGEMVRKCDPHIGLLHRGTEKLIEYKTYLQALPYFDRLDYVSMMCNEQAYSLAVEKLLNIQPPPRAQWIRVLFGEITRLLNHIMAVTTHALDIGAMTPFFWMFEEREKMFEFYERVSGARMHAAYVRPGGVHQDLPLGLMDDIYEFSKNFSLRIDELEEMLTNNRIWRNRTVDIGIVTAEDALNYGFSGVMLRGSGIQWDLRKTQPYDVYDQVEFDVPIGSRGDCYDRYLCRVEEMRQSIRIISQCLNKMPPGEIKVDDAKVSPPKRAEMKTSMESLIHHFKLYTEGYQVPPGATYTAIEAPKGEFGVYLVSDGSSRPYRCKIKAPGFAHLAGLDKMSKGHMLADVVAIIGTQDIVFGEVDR
UniProt P42026, 38-216: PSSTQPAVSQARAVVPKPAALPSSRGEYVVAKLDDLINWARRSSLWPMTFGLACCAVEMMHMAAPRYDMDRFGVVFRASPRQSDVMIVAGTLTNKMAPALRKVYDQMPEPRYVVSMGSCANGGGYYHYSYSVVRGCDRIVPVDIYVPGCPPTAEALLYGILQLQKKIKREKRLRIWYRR

Structure (SMILES) | B. taurus: C. elegans IC50 Fold Change (Complex I IC50 ~Fold Change) [1] | Complex I IC50 ~Fold Change [1] | IC50 Fold change [1] | Relative Motility (L1 wild-type C. elegans; [2]) | Relative Motility (L1 wild-type C. elegans; [3]) | Relative Motility (L1 wild-type C. elegans; [4]) | C. elegans KCN Survival (L1 wild-type C. elegans; Dose 100 µM) | C. elegans KCN Survival (L1 wild-type C. elegans; Dose 0.78 µM)
Cc1nc2ccccc2n1Cc1ccc(C(C)(C)C)cc1 [Compound 5521938] | 0.46 | 0.46 | 0.46 | 0.215 |  |  |  | 
Brc1ccc(Cn2cnc3ccccc32)cc1 [Compound 5542661] | 6.32 | 6.32 | 6.32 |  | 0.150 |  |  | 
Cc1nc2ccccc2n1CCOc1ccccc1 [Compound 5550112] |  | 1.7 | 1.70 |  |  | 0.200 |  | 
Cc1nc2ccccc2n1CCOc1ccccc1Cl [Compound 5561642] |  | 3.43 | 3.43 |  |  | 0.220 | 0.343 | 
Clc1ccc(Cn2cnc3ccccc32)cc1Cl [Compound 5571325] | 2.62 | 2.62 | 2.62 |  | 0.150 |  |  | 
Cc1ccc(Cn2c(C)nc3ccccc32)cc1 [Compound 5651984] | 5.5 | 5.5 | 5.50 |  | 0.170 |  |  | 
Nc1nc2ccccc2n1Cc1ccc(Cl)cc1 [Compound 5652765] | 4.83 | 4.83 | 4.83 |  | 0.160 |  |  | 
Cc1nc2ccccc2n1Cc1ccc(Cl)c(Cl)c1 [Compound 5655567] | 2.49 | 2.49 | 2.49 |  | 0.100 |  |  | 
Cc1ccc(OCCn2cnc3ccccc32)cc1 [Compound 5671538] |  | 3.26 | 3.26 |  |  | 0.092 |  | 
Nc1nc2ccccc2n1CCOc1ccc(Br)cc1 [Compound 5842535] |  | 2.05 | 2.05 |  |  | 0.130 |  | 
Cc1ccc(C(C)C)c(OCC(O)Cn2cnc3ccccc32)c1 (stereo not shown) [Compound 6093301] |  | 5.75 | 5.75 |  |  |  |  | 
Cc1cccc(OCCn2c(C)nc3ccccc32)c1 [Compound 6285199] |  | 5.91 | 5.91 |  |  | 0.140 |  | 
Cc1ccc(Cn2c(C(C)C)nc3ccccc32)cc1 [Compound 6586153] | 6.11 | 6.11 | 6.11 |  | 0.068 |  |  | 
Cc1nc2ccccc2n1Cc1ccccc1Cl [Compound 6707368] | 7.07 | 7.07 | 7.07 |  | 0.070 |  |  | 
Clc1ccc(Cn2cnc3ccccc32)c(Cl)c1 [Compound 6750659] | 5.78 | 5.78 | 5.78 |  | 0.093 |  |  | 
C=CCn1c(-c2ccc(N(C)C)cc2)nc2ccccc21 [Compound 6873298] |  | 1.59 | 1.59 |  | 0.140 |  |  | 
Clc1ccc(OCCn2cnc3ccccc32)c(Cl)c1 [Compound 7221649] |  | 2.52 | 2.52 |  |  | 0.100 |  | 
Nc1nc2ccccc2n1Cc1ccc(Br)cc1 [Compound 7313068] | 3.85 | 3.85 | 3.85 |  | 0.180 |  |  | 
Cc1nc2ccccc2n1Cc1ccc(C(C)C)cc1 [Compound 7353551] | 3.65 | 3.65 | 3.65 | 0.232 |  |  |  | 

Structure (SMILES) | B. taurus: C. elegans IC50 Fold Change (Complex I IC50 ~Fold Change) [1] | Complex I IC50 ~Fold Change [1] | IC50 Fold change [1] | Relative Motility (L1 wild-type C. elegans; [2]) | Relative Motility (L1 wild-type C. elegans; [3]) | Relative Motility (L1 wild-type C. elegans; [4]) | C. elegans KCN Survival (L1 wild-type C. elegans; Dose 100 µM) | C. elegans KCN Survival (L1 wild-type C. elegans; Dose 0.78 µM)
CCCOc1ccc(Cn2cnc3ccccc32)cc1 [Compound 7355741] | 4.95 | 4.95 | 4.95 |  | 0.130 |  |  | 
Cc1nc2ccccc2n1Cc1ccc(F)cc1 [Compound 7360886] | 4.88 | 4.88 | 4.88 | 0.229 |  |  |  | 
Cc1ccc(OCCn2cnc3ccccc32)c(C)c1 [Compound 7706808] |  | 5.84 | 5.84 |  |  | 0.160 |  | 
Nc1nc2ccccc2n1CCCOc1ccccc1 [Compound 7915320] |  | 2.35 | 2.35 |  |  |  |  | 
Cc1ccccc1OCCCn1c(C)nc2ccccc21 [Compound 7916923] |  | 5.7 | 5.70 |  |  | 0.051 |  | 
FC(F)(F)c1cccc(OCCCCn2cnc3ccccc32)c1 [Compound 7925004] | 6.29 | 6.29 | 6.29 |  | 0.180 |  |  | 
CCc1cc(OCCn2cnc3ccccc32)ccc1Cl [Compound 7925288] |  | 0.7 | 0.70 |  |  | 0.100 |  | 
Cc1ccc(SCCCCn2cnc3ccccc32)cc1 [Compound 7925333] | 7.02 | 7.02 | 7.02 |  | 0.130 |  |  | 0.965
Clc1ccc(SCCCCn2cnc3ccccc32)cc1 [Compound 7925515] | 8.44 | 8.44 | 8.44 |  | 0.082 |  |  | 
Cc1ccc(SCCCn2cnc3ccccc32)cc1 [Compound 7926035] |  | 6.65 | 6.65 |  |  | 0.067 |  | 
CC(C)Oc1cccc(OCCn2cnc3ccccc32)c1 [Compound 7926496] |  | 0.35 | 0.35 |  |  | 0.170 |  | 
Cn1c(Cc2ccc(Cl)cc2)nc2ccccc21 [Compound 9005666] | 4.03 | 4.03 | 4.03 | 0.126 |  |  |  | 
Cc1nn(C)c(Oc2ccccc2)c1C=NOCc1ccc(C(=O)OC(C)(C)C)cc1 [Fenpyroximate, reference compound] | 2.3 |  |  |  |  |  |  | 
c1ccc(-c2noc(CCCCc3nc4ccccc4[nH]3)n2)cc1 [STK633241] |  | 0.9 | 0.90 | 0.000 |  |  |  | 
CCn1c(C(C)c2ccc(CC(C)C)cc2)nc2ccccc21 (stereo not shown) [STK951902] | 6.84 | 6.84 | 6.84 | 0.129 |  |  |  | 
CC(C)Cc1ccc(C(C)c2nc3ccccc3n2C(C)C)cc1 (stereo not shown) [STK951903] | 3.5 | 3.5 | 3.50 | 0.222 |  |  |  | 
C=CCn1c(C(C)c2ccc(CC(C)C)cc2)nc2ccccc21 (stereo not shown) [STL020755] | 7.4 | 7.4 | 7.40 | 0.195 |  |  |  | 
c1ccc(CCCCCCCCCCc2nc3ccccc3[nH]2)cc1 [STL442376] |  | 1.42 | 1.42 | 0.038 |  |  |  | 
Cc1ccc2nc(C(C)c3ccc(CC(C)C)cc3)[nH]c2c1 (stereo not shown) [STL482096] | 13.52 | 13.52 | 13.52 | 0.106 |  |  |  | 

— article PMC11079024, “Identification of a family of species-selective complex I inhibitors as potential anthelmintics” (Nature Communications, 2024)
